Assay results from patent publication US20180325872A1, “COMPOUNDS FOR TREATMENT OF CANCER” (UNIVERSITY OF TENNESSEE RESEARCH FOUNDATION, priority 2013, published 2018).

Legend:
BCRP = experiment: Cytotoxicity in cells with BCRP-mediated resistance; conditions: discussion of Table 11B
[1] = Pharmacokinetic study in Sprague-Dawley rats; conditions: rat, IV 5 mg/kg, N = 3

SMILES | resistance index, BCRP (BCRP) | AUC [1] [µg·min/mL]
CCc1c2c(nc3ccc(O)cc13)-c1cc3c(c(=O)n1C2)COC(=O)[C@]3(O)CC [SN-38] | 41 | –
COc1cc(C(=O)c2csc(Nc3ccc4[nH]ccc4c3)n2)cc(OC)c1OC [compound 55] | – | 509 ± 73
